Measured values reported in patent publication US20140308678.

Legend:
K810A-RB1 (773-813) = molecular target: T1, K810A-RB1 (773-813)
T1 chain: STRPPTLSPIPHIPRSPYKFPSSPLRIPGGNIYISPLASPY

[1] = molecular target: T2, RB1 (773-928), recombinant
T2 chain: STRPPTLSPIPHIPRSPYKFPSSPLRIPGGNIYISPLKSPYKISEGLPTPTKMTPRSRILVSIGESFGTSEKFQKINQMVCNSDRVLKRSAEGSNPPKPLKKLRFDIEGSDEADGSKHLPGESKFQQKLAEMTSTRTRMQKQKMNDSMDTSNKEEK

B1: His-SMYD2 (protein)
chain: MRAEGLGGLERFCSPGKGRGLRALQPFQVGDLLFSCPAYAYVLTVNERGNHCEYCFTRKEGLSKCGRCKQAFYCNVECQKEDWPMHKLECSPMVVFGENWNPSETVRLTARILAKQKIHPERTPSEKLLAVKEFESHLDKLDNEKKDLIQSDIAALHHFYSKHLGFPDNDSLVVLFAQVNCNGFTIEDEELSHLGSAIFPDVALMNHSCCPNVIVTYKGTLAEVRAVQEIKPGEEVFTSYIDLLYPTEDRNDRLRDSYFFTCECQECTTKDKDKAKVEIRKLSDPPKAEAIRDMVRYARNVIEEFRRAKHYKSPSELLEICELSQEKMSSVFEDSNVYMLHMMYQAMGVCLYMQDWEGALQYGQKIIKPYSKHYPLYSLNVASMWLKLGRLYMGLEHKAAGEKALKKAIAIMEVAHGKDHPYISEIKQEIESH
in vitro methyltransferase assay (fluorography) (K810A-RB1 (773-813)): K810A-RB1 is not methylated by SMYD2 | in vitro methyltransferase assay (fluorography) [1]: the C-terminal region (773 aa to 928 aa) of RB1 protein includes the methylation site(s)
